Assay results as given in PubChem BioAssay AID435003 (Sanford-Burnham Center for Chemical Genomics, 2010).
The list shows a part of the results, in another mix than the full data. Active and inactive are the calls of the source. Rule as the data show it: active = inhibition above about 50%; inactive = the rest.

assay: lowers stimulated NF-kB reporter luminescence – cell-based, uHTS, TCR NF-kB activation inhibitor project, primary screen (AID 435003); conditions: Jurkat, PMA/ionomycin-induced NF-kB luciferase reporter, at 4 µM, active compounds read high

Row | SMILES | inhibition
1 | N#Cc1ccc(C(=O)NCC2(N3CCCCC3)CCCCC2)cc1 | inactive: -2.34%
2 | CC(C)(C)OC(=O)N1CCC(N(C(=O)c2ccccc2)c2ccc(Cl)cc2)CC1 | inactive: 3.37%
3 | CN(C)C1(CNC(=O)c2cccc(C#N)c2)CCCCC1 | inactive: -20%
4 | CCCN1CCC(Nc2cc(OC)cc(OC)c2)CC1 | inactive: 0.717%
5 | c1ccc(CN2CCC(Nc3ccccc3)CC2)cc1 | inactive: -3.12%
6 | COc1cc(C(=O)NCC2(N3CCOCC3)CCCCC2)cc(OC)c1C | inactive: -6.89%
7 | O=C(NCC1(N2CCOCC2)CCCCC1)c1cc(Br)ccc1Cl | inactive: -1.28%
8 | COc1ccc(C(=O)NCC2(N3CCOCC3)CCCCC2)cc1OC | inactive: -2.3%
9 | CCOC(=O)N1CCC(Nc2ccc(C)cc2)CC1 | inactive: 7.5%
10 | N/C(=N\O)c1c(N)no[n+]1[O-] | inactive: -5.95%
11 | O=C(OC1CN2CCC1CC2)C1c2ccccc2C=Cc2ccccc21 (configuration not stated) | inactive: 13.5%
12 | CCc1cc(C(=O)NCC2(N3CCCCC3)CCCCC2)sc1C | inactive: 4.72%
13 | CN1CCC(Nc2ccc(F)c(Cl)c2)CC1 | inactive: 0.885%
14 | CCOc1ncccc1C(=O)NCC1(N2CCOCC2)CCCCC1 | inactive: -4.16%
15 | O=C(O)C1(Nc2ccccc2)CCN(Cc2ccccc2)CC1 | inactive: -22.3%
16 | CC(C)(C)OC(=O)N1CCC(Nc2ccccc2)CC1 | inactive: 18%
17 | CCCOc1ccc(C(=O)NCC2(N(C)C)CCCCC2)cc1 | inactive: -12.5%
18 | COc1cc(OC)cc(C(=O)NCC2(N3CCOCC3)CCCCC2)c1 | inactive: -6.17%
19 | COc1cccc(C(=O)N(c2cc(C)cc(C)c2)C2CCN(C(=O)OC(C)(C)C)CC2)c1 | inactive: -0.0138%
20 | CCC(CO)(C(=O)OC1CN2CCC1CC2)c1ccccc1 (configuration not stated) | inactive: -7.04%
21 | CN1CCC(Nc2ccc(Cl)cc2)CC1 | inactive: -19.3%
22 | CCCOc1ccc(C)cc1CN(CCCl)CCCl | inactive: -12.7%
23 | COc1cc(OC)cc(C(=O)NCC2(N3CCCCC3)CCCCC2)c1 | inactive: -2.68%

Row | SMILES | inhibition
24 | Fc1ccccc1NC1CCN(Cc2ccccc2)CC1 | inactive: 0.66%
25 | Cc1ccc(C(=O)NCC2(N3CCCCC3)CCCCC2)o1 | inactive: 6.19%
26 | CCN1CCC(Nc2cccc(F)c2)CC1 | inactive: 1.75%
27 | CN(C)c1ccc(C(=O)NCC2(N3CCCCC3)CCCCC2)cc1 | inactive: -3.72%
28 | O=C(NCC1(N2CCCCC2)CCCCC1)c1ccco1 | inactive: -6.68%
29 | CCOc1ccc(C)cc1CN(CCCl)CCCl | inactive: -8.25%
30 | COc1ccc(NC2CCN(CCc3ccccc3)CC2)c(OC)c1 | inactive: 7.56%
31 | CCOC(=O)N1CCC(Nc2ccc(F)cc2)CC1 | inactive: -6.34%
32 | O=C(NCC1(N2CCCCC2)CCCCC1)c1ccc(F)cc1 | inactive: 1.79%
33 | CCCCOc1ccc(C(=O)NCC2(N3CCOCC3)CCCCC2)cc1 | inactive: -12.6%
34 | Cc1ccc(OCC(C)C)c(CN(CCCl)CCCl)c1 | inactive: 0.716%
35 | CCOC(=O)N1CCC(Nc2cccc(C)c2)CC1 | inactive: -2.62%
36 | COc1ccc(C(=O)NCC2(N3CCCCC3)CCCCC2)c(OC)c1OC | inactive: -7.03%
37 | CC(C)(C)OC(=O)N1CCC(N(C(=O)c2ccccc2)c2ccc(F)cc2)CC1 | inactive: 2.74%
38 | COc1ccc(C(=O)NCC2(N3CCCCC3)CCCCC2)cc1 | inactive: -20.2%
39 | O=C(NCC1(N2CCCCC2)CCCCC1)c1cccs1 | inactive: -5.28%
40 | O=C(NCC1(N2CCCCC2)CCCCC1)c1ccc(=O)[nH]c1 | inactive: -4.2%
41 | CSc1ccccc1C(=O)NCC1(N2CCCCC2)CCCCC1 | inactive: -21.6%
42 | Cc1cc(C)cc(N(C(=O)c2ccccc2)C2CCN(C(=O)OC(C)(C)C)CC2)c1 | inactive: -35.5%
43 | O=C(NCC1(N2CCCCC2)CCCCC1)c1ccc(Cl)nc1 | inactive: -5.04%
44 | O=C(NCC1(N2CCOCC2)CCCCC1)c1cc2ccccc2o1 | inactive: -4.59%
45 | COc1ccc(Cl)cc1C(=O)NCC1(N2CCOCC2)CCCCC1 | inactive: -5.62%
46 | O=C(OC1CN2CCC1CC2)C1c2ccccc2Oc2ccccc21 (configuration not stated) | inactive: 1.88%

Row | SMILES | inhibition
47 | O=C(NCC1(N2CCCCC2)CCCCC1)c1ccc(Cl)s1 | inactive: 4.54%
48 | N#CC1(Nc2ccccc2)CCN(Cc2ccccc2)CC1 | inactive: 8.8%
49 | CCOC(=O)N1CCC(Nc2ccc(OC)cc2)CC1 | inactive: 14.6%
50 | CC(C)c1ccc(NC2CCN(C(=O)OC(C)(C)C)CC2)cc1 | inactive: -41.9%
51 | CN(C)c1cccc(C(=O)NCC2(N3CCCCC3)CCCCC2)c1 | inactive: 1.01%
52 | COc1ccc(CN(CCCl)CCCl)cc1Cl | inactive: -5.08%
53 | O=C(NCC1(N2CCOCC2)CCCCC1)c1cc(F)c(F)cc1Cl | inactive: -7.08%
54 | COc1cc(OC)c(C(=O)NCC2(N(C)C)CCCCC2)cc1OC | inactive: -9.78%
55 | O=C(NCC1(N2CCCCC2)CCCCC1)c1cncc(Br)c1 | inactive: -0.97%
56 | CN1CCC(Nc2cccc(F)c2)CC1 | inactive: 3.93%
57 | O=C(NCC1(N2CCCCC2)CCCCC1)c1ccc(OC(F)F)cc1 | inactive: -14.4%
58 | N#CC1(Nc2ccccc2)CCN(CCc2ccccc2)CC1 | inactive: -4.9%
59 | CCN1CCC(Nc2ccc(Cl)cc2)CC1 | inactive: -17.8%
60 | O=C(NCC1(N2CCCCC2)CCCCC1)c1cccc([N+](=O)[O-])c1 | inactive: -11.5%
61 | CSc1ccc(C(=O)NCC2(N3CCOCC3)CCCCC2)cc1 | inactive: -0.991%
62 | O=C(NCC1(N2CCCCC2)CCCCC1)c1cccc(C(F)(F)F)c1 | inactive: 11.4%
63 | COc1cc(C(=O)NCC2(N3CCCCC3)CCCCC2)ccc1OC(F)F | inactive: -0.982%
64 | O=C(NCC1(N2CCOCC2)CCCCC1)c1cc(=O)[nH]c2ccccc12 | inactive: 13.3%
65 | CN1CCN(CCOC(=O)C(O)(c2ccccc2)c2ccccc2)CC1 | inactive: 4.36%
66 | COc1ccc(NC2CCN(C(=O)OC(C)(C)C)CC2)cc1 | inactive: -0.654%
67 | CC(C)c1ccc(C(=O)NCC2(N3CCOCC3)CCCCC2)cc1 | inactive: -4.05%
